The target of this assay is T1, IL-23R (Homo sapiens, UniProt Q5VWK5).
T1 construct: host or cells: HEK293
T1 sequence (Q5VWK5 24-629): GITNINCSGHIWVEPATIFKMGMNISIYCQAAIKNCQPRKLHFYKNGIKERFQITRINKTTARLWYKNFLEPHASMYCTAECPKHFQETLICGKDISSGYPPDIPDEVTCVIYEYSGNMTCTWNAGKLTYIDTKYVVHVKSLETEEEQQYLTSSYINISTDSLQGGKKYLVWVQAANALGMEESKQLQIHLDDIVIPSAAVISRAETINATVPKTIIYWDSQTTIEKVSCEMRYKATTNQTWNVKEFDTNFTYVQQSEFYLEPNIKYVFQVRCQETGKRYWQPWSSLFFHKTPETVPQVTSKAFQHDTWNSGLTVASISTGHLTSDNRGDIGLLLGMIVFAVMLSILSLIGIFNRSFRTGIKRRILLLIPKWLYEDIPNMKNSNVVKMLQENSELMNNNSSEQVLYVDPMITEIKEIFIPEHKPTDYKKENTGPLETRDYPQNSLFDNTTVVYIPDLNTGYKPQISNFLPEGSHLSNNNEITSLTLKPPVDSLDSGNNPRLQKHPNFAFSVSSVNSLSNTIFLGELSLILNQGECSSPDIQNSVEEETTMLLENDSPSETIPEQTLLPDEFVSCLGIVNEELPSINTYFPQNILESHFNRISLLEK
The experiment in a line: IL23R Reporter Assay. The class given is cell-based. The following applies: HEK293 cells containing IL-23R, IL-12RP1 and STAT-inducible firefly luciferase reporter; 10 ng/mL IL-23 (EC90); 5 h at 37° C.; read-out: IL23R Reporter Assay. (A reporter such as luciferase makes a cellular process visible.)
`CC(=O)NCCCC[C@@H]1NC(=O)[C@H](Cc2c[nH]c3c(-c4cccc(NC(C)=O)c4)cccc23)NC(=O)[C@H]([C@@H](C)O)NC(=O)[C@H](CC(N)=O)NC(=O)[C@@H](NC(=O)[C@@H](CCCNC(=N)N)NC(C)=O)C(C)(C)SSC(C)(C)[C@@H](C(=O)N[C@@H](Cc2ccc(OCCCCC[N+](C)(C)C)cc2)C(=O)N[C@@H](Cc2ccc3ccccc3c2)C(=O)NC2(C(=O)N[C@@H](CCC(=O)O)C(=O)N[C@@H](CC(N)=O)C(=O)N[C@@H](Cc3cncc(C)c3)C(=O)N(C)CC(N)=O)CCOCC2)NC1=O` [compound 540, MeCO-r-Pen(3)-N-T-7(3NAcPh)W-K(Ac)-Pen(3)-TMAPF-2Nal-THP-E-N-5MePyridinAla-Sar-CONH2]: the IC50 amounted to 3.9 nM.
As for `CC(=O)NCCCC[C@@H]1NC(=O)[C@H](Cc2c[nH]c3c(-c4cccc(NC(C)=O)c4)cccc23)NC(=O)[C@H]([C@@H](C)O)NC(=O)[C@H](CC(N)=O)NC(=O)[C@@H](NC(=O)CCOCCOCC[N+](C)(C)C)C(C)(C)SSC(C)(C)[C@@H](C(=O)N[C@@H](Cc2ccc(OCCN)cc2)C(=O)N[C@@H](Cc2ccc3ccccc3c2)C(=O)NC2(C(=O)N[C@@H](CCCCNC(C)=O)C(=O)N[C@@H](CC(N)=O)C(=O)N[C@@H](Cc3cccnc3)C(=O)N(C)CC(N)=O)CCOCC2)NC1=O` [compound 445, cPEG3aCO-Pen(3)-N-T-7(3NAcPh)W-K(Ac)-Pen(3)-AEF-2Nal-THP-K(Ac)-N-3Pya-Sar-CONH2], the IC50 is 1.7 nM.
The same measure for `CC(=O)N(C)CCCC[C@@H]1NC(=O)[C@H](Cc2c[nH]c3c(C)cccc23)NC(=O)[C@H]([C@@H](C)O)NC(=O)[C@H](CC(=O)N(C)C)NC(=O)[C@@H](NC(=O)CCOCCOCC[N+](C)(C)C)C(C)(C)SSC(C)(C)[C@@H](C(=O)N[C@@H](Cc2ccc(OCCCC[N+](C)(C)C)cc2)C(=O)N[C@@H](Cc2ccc3ccccc3c2)C(=O)NC2(C(=O)N[C@@H](CCCCN(C)C(C)=O)C(=O)N[C@@H](CC(N)=O)C(=O)N[C@@H](Cc3cccnc3)C(=O)N(C)CC(=O)N(C)C)CCOCC2)NC1=O` [compound 226, cPEG3aCO-Pen(3)-N(N(Me)2)-T-7MeW-K(NMeAc)-Pen(3)-TMA4F-2Nal-THP-K(NMeAc)-N-3Pya-Sar-CON(Me)2]: 2.8 nM; for `Cc1cccc2c(C[C@@H]3NC(=O)[C@H]([C@@H](C)O)NC(=O)[C@H](CC(=O)N(C)C)NC(=O)[C@@H](NC(=O)CCOCCOCC[N+](C)(C)C)C(C)(C)SSC(C)(C)[C@@H](C(=O)N[C@@H](Cc4ccc(OCCN(C)C)cc4)C(=O)N[C@@H](Cc4ccc5ccccc5c4)C(=O)NC4(C(=O)N[C@@H](CCC(=O)N(C)C)C(=O)N[C@@H](CC(N)=O)C(=O)N[C@@H](Cc5cccnc5)C(=O)N(C)CC(=O)N(C)C)CCOCC4)NC(=O)[C@H](CCC(=O)N(C)C)NC3=O)c[nH]c12` [compound 154, cPEG3aCO-Pen(3)-N(N(Me)2)-T-7MeW-Q(N(Me)2)-Pen(3)-AEF(N(Me)2)-2Nal-THP-Q(N(Me)2)-N-3Pya-Sar-CON(Me)2]: 2.4 nM.
The same measure for `CC(=O)N(C)CCCC[C@@H]1NC(=O)[C@H](Cc2c[nH]c3c(C)cccc23)NC(=O)[C@H]([C@@H](C)O)NC(=O)[C@H](CC(=O)N(C)C)NC(=O)[C@@H](NC(=O)CCOCCNC(=N)N)C(C)(C)SSC(C)(C)[C@@H](C(=O)N[C@@H](Cc2ccc(OCCOCCOCC[N+](C)(C)C)cc2)C(=O)N[C@@H](Cc2ccc3ccccc3c2)C(=O)NC2(C(=O)N[C@@H](CCCCN(C)C(C)=O)C(=O)N[C@@H](CC(N)=O)C(=O)N[C@@H](Cc3cccnc3)C(=O)N(C)CC(=O)N(C)C)CCOCC2)NC1=O` [compound 413, cPEG2gCO-Pen(3)-N(N(Me)2)-T-7MeW-K(NMeAc)-Pen(3)-APEG3F-2Nal-THP-K(NMeAc)-N-3Pya-Sar-CON(Me)2]: 1.7 nM; for `CC(=O)NCCCC[C@@H]1NC(=O)[C@H](Cc2c[nH]c3c(-c4cccc(NC(C)=O)c4)cccc23)NC(=O)[C@H]([C@@H](C)O)NC(=O)[C@H](CC(N)=O)NC(=O)[C@@H](NC(=O)[C@@H](CCCC[N+](C)(C)C)NC(C)=O)C(C)(C)SSC(C)(C)[C@@H](C(=O)N[C@@H](Cc2ccc(OCCCCC[N+](C)(C)C)cc2)C(=O)N[C@@H](Cc2ccc3ccccc3c2)C(=O)NC2(C(=O)N[C@@H](CCC(=O)O)C(=O)N[C@@H](CC(N)=O)C(=O)N[C@@H](Cc3cncc(C)c3)C(=O)N(C)CC(N)=O)CCOCC2)NC1=O` [compound 513, MeCO-k(Me)3-Pen(3)-N-T-7(3NAcPh)W-K(Ac)-Pen(3)-TMAPF-2Nal-THP-E-N-5MePyridinAla-Sar-CONH2]: 5.3 nM.
Next, `CC(=O)N[C@@H]1C(=O)N[C@@H](CC(=O)N(C)C)C(=O)N[C@@H]([C@@H](C)O)C(=O)N[C@@H](Cc2c[nH]c3c(C)cccc23)C(=O)N[C@@H](COCCOCC[N+](C)(C)C)C(=O)N[C@H](C(=O)N[C@@H](Cc2ccc(OCCOCCOCC[N+](C)(C)C)cc2)C(=O)N[C@@H](Cc2ccc3ccccc3c2)C(=O)NC2(C(=O)N[C@@H](COCCOCC[N+](C)(C)C)C(=O)N[C@@H](CC(N)=O)C(=O)N[C@@H](Cc3cccnc3)C(=O)N(C)CC(=O)N(C)C)CCOCC2)C(C)(C)SSC1(C)C` (relative stereo) [compound 256, MeCO-Pen(3)-N(N(Me)2)-T-7MeW-APEG2Ser(S*)-Pen(3)-APEG3F-2Nal-THP-APEG2Ser(S*)-N-3Pya-Sar-CON(Me)2]: 120 nM.
On to `CC(=O)N(C)CCCC[C@@H]1NC(=O)[C@H](Cc2c[nH]c3c(C)cccc23)NC(=O)[C@H]([C@@H](C)O)NC(=O)[C@H](CC(=O)N(C)C)NC(=O)[C@@H](NC(=O)CCOCCOCC[N+](C)(C)C)C(C)(C)SSC(C)(C)[C@@H](C(=O)N[C@@H](Cc2ccc(OCC3CCC([N+](C)(C)C)CC3)cc2)C(=O)N[C@@H](Cc2ccc3ccccc3c2)C(=O)NC2(C(=O)N[C@@H](CCCCN(C)C(C)=O)C(=O)N[C@@H](CC(N)=O)C(=O)N[C@@H](Cc3cccnc3)C(=O)N(C)CC(=O)N(C)C)CCOCC2)NC1=O` (single isomer, unassigned) [compound 222, cPEG3aCO-Pen(3)-N(N(Me)2)-T-7MeW-K(NMeAc)-Pen(3)-ACHMF-2Nal-THP-K(NMeAc)-N-3Pya-Sar-CON(Me)2], for which the IC50 came to 3.3 nM.
Regarding `CC(=O)NCCCC[C@@H]1NC(=O)[C@H](Cc2c[nH]c3c(C)cccc23)NC(=O)[C@H]([C@@H](C)O)NC(=O)[C@H](CC(N)=O)NC(=O)[C@@H](NC(=O)CCOCCOCC[N+](C)(C)C)C(C)(C)SSC(C)(C)[C@@H](C(=O)N[C@@H](Cc2ccc(OCCOCCOCC[N+](C)(C)C)cc2)C(=O)N[C@@H](Cc2ccc3ccccc3c2)C(=O)NC2(C(=O)N[C@@H](CCCCNC(C)=O)C(=O)N[C@@H](CC(N)=O)C(=O)N[C@@H](Cc3cccnc3)C(=O)N(C)CC(N)=O)CCOCC2)NC1=O` [compound 195, cPEG3aCO-Pen(3)-N-T-7MeW-K(Ac)-Pen(3)-APEG3F-2Nal-THP-K(Ac)-N-3Pya-Sar-CONH2], the IC50 stood at 2.9 nM.
With `CC(=O)N[C@@H]1C(=O)N[C@@H](CC(N)=O)C(=O)N[C@@H]([C@@H](C)O)C(=O)N[C@@H](Cc2c[nH]c3c(C)cccc23)C(=O)N[C@@H](CCCCN(C)C(C)=O)C(=O)N[C@H](C(=O)N[C@@H](Cc2ccc(OCCN)cc2)C(=O)N[C@@H](Cc2ccc3ccccc3c2)C(=O)NC2(C(=O)N[C@@H](CCCCN(C)C(C)=O)C(=O)N[C@@H](CC(N)=O)C(=O)N[C@@H](Cc3cccnc3)C(=O)N(C)CC(N)=O)CCOCC2)C(C)(C)SSC1(C)C` [compound 280], the IC50 was 2.7 nM.
Next, `CC(=O)NCCCC[C@@H]1NC(=O)[C@H](Cc2c[nH]c3c(C)cccc23)NC(=O)[C@H]([C@@H](C)O)NC(=O)[C@H](CC(N)=O)NC(=O)[C@@H](NC(=O)CCCCC[N+](C)(C)C)C(C)(C)SSC(C)(C)[C@@H](C(=O)N[C@@H](Cc2ccc(OCCN)cc2)C(=O)N[C@@H](Cc2ccc3ccccc3c2)C(=O)NC2(C(=O)N[C@@H](CCC(=O)O)C(=O)N[C@@H](CC(N)=O)C(=O)N[C@@H](Cc3cccnc3)C(=O)N(C)CC(N)=O)CCOCC2)NC1=O` [compound 81]: 2.9 nM; `CC(=O)NCCCC[C@@H]1NC(=O)[C@H](Cc2c[nH]c3c(C)cccc23)NC(=O)[C@H]([C@@H](C)O)NC(=O)[C@H](CC(N)=O)NC(=O)[C@@H](NC(=O)C(F)(F)F)C(C)(C)SSC(C)(C)[C@@H](C(=O)N[C@@H](Cc2ccc(OCCN)cc2)C(=O)N[C@@H](Cc2ccc3ccccc3c2)C(=O)NC2(C(=O)N[C@@H](CCCCNC(C)=O)C(=O)N[C@@H](CC(N)=O)C(=O)N[C@@H](Cc3cccnc3)C(=O)N(C)CC(N)=O)CCC(F)(F)CC2)NC1=O` [compound 50]: 3.6 nM.
As for `CC(=O)N(C)CCCC[C@@H]1NC(=O)[C@H](Cc2c[nH]c3c(C)cccc23)NC(=O)[C@H]([C@@H](C)O)NC(=O)[C@H](CC(=O)N(C)C)NC(=O)[C@@H](NC(=O)CCOCCOCC[N+](C)(C)C)C(C)(C)SSC(C)(C)[C@@H](C(=O)N[C@@H](Cc2ccc(OCCNCC[N+](C)(C)C)cc2)C(=O)N[C@@H](Cc2ccc3ccccc3c2)C(=O)NC2(C(=O)N[C@@H](CCCCN(C)C(C)=O)C(=O)N[C@@H](CC(N)=O)C(=O)N[C@@H](Cc3cccnc3)C(=O)N(C)CC(=O)N(C)C)CCOCC2)NC1=O` [compound 211, cPEG3aCo-Pen(3)-N(NMe2)-T-7MeW-K(NMeAc)-Pen(3)-AEF(NHCh)-2Nal-THP-K(NMeAc)-N-3Pya-Sar-CON(Me)2], the IC50 was 2.3 nM.

The record behind these values is patent publication US20260022143A1, “Cyclic Peptide Inhibitors of IL-23” (JANSSEN PHARMACEUTICA NV, priority 2022, published 2026).
